The values below come from paper PMC2637922, “Active-Site Inhibitors of mTOR Target Rapamycin-Resistant Outputs of mTORC1 and mTORC2” (PLoS Biology, 2009).

The structures appear in SMILES notation.

Assay [1] relates to Akt phosphorylation in wild-type MEFs. The assay can be described thus: Akt phosphorylation in primary wild-type MEFs (Western blot). The assay is classed as cell-based, mouse. In general terms: A western blot detects proteins with antibodies after separation by electrophoresis.
For assay [2], the system named is 4EBP1 bound to eIF4E in L6 myotube lysates. The assay can be described thus: Cap pull-down assay (m7GTP beads). The assay is classed as cell-based. On the procedure: L6 myotubes from one well of a six-well plate were lysed in 300 μl of cap lysis buffer as described above. 50 μl of detergent-free cap lysis buffer and 20 μl of pre-washed cap beads were added to 150 μl of cleared lysate and incubated at 4 °C overnight with tumbling. The beads were washed twice with 400 μl of cap wash buffer (cap lysis buffer with 0.5% NP-40 instead of 1% NP-40) and twice with 500 μl of PBS. The beads were boiled in SDS-PAGE sample buffer and the retained proteins analyzed by Western blot. All antibodies were from Cell Signaling Technologies except for the anti-eIF4E antibody, which was from BD Biosciences.

The test system of assay [3] is Akt substrates GSK3α/β, TSC2, and FoxO1/O3a in L6 myotubes. Kind of assay: Akt substrate phosphorylation in L6 myotubes (Western blot). The assay is classed as cell-based.
The test system of assay [4] is actin stress fibers in NIH 3T3 cells.

Consider `CC(C)n1nc(-c2cc3cc(O)ccc3[nH]2)c2c(N)ncnc21` [PP242], for which, in assay [1], the “constitutive phosphorylation of the turn motif of Akt at T450” value is reported as “no effect”; the “phosphorylation of Akt at both S473 and T308” value was “inhibited”. The “insulin-stimulated release of 4EBP1 from eIF4E (retention on m7GTP beads)” value in assay [2] is on record as “much larger retention of 4EBP1”. In assay [3], the “phosphorylation of Akt and its substrates” value is listed as “only partially inhibited”. The “morphology or abundance of actin stress fibers” value in assay [4] is recorded as “no obvious effect”.
